{"source": "ChEMBL document CHEMBL1123752", "about": "“Hexahydro-1H-1-pyrindines from acid rearrangement of 9-alkylidene-5-(m-methoxyphenyl)-2-methylmorphans. A new structural type of narcotic antagonists” (J Med Chem, 1987)", "tested_on": "Mus musculus", "assay": "Compound administered subcutaneously was evaluated for antinociceptive activity determined by hot plate test in mice"}
{"smiles": "C=CCN1CC[C@]23c4c5ccc(O)c4O[C@H]2[C@@H](O)C=C[C@H]3[C@H]1C5.Cl", "values": [{"measurement": "ED50", "result": 9.9, "unit": "mg/kg"}]}
